Laboratory results taken from BindingDB's records for doi:10.1021/jm950721m (Warner-Lambert, 1996).

Assay: Compound was evaluated for effective concentration […] for Dopamine receptor D2 mitogenesis. (95% confidence intervals)

Work on `Oc1ccc2[nH]cc(CCCCN3CC=C(c4ccccc4)CC3)c2c1` yielded an EC50 of 0.37 nM.
